According to patent publication US20090311283A1:

Key:
[1] = target: HLA-A*6801 (human); experiment: competitive inhibition of 125I-labelled probe peptide binding to purified HLA, gel filtration
[2] = target: HLA-A*03 (human); experiment: as above

TTDLEAYFK (modifications not checked) [HBV X 105 peptide 1.0215 (…)] showed an IC50 [1] of 0.471 µM and an IC50 [2] of 18.3 µM.
